The source of these data is US11141411B2, “Methods of treating neurological, metabolic, and other disorders using enantiopure deuterium-enriched pioglitazone” (Poxel SA, priority 2014, dated 2021).

Series [1] has as its system db/db mice. Put plainly: db/db mouse model of type II diabetes, 10-day daily oral dosing. Particulars: daily oral gavage 10 days, d-R-pio 20 mg/kg, h-rac-pio 30 mg/kg; for decrease of inflammatory biomarker serum amyloid A: vs. vehicle; for non-essential fatty acids / serum triglycerides: d-S-pio 20 mg/kg, terminal blood.
The conditions of series [2]: mouse plasma; average of constants fitted for h-S and h-R, fixed in d-rac analysis.
The conditions of series [3]: for effect of deuterium incorporation on half-life, deuterated vs. protonated enantiomer: plasma stability study, species not specified in the sentence (human and mouse studied).
The mark [4] stands for this setting: human plasma, average of constants fitted for h-S and h-R, fixed in d-rac analysis.

Where two headings read alike, the source gives them in different places.

Turning to `CCc1ccc(CCOc2ccc(CC3SC(=O)NC3=O)cc2)nc1` (racemic) [h-rac-pio, rac-5-({p-[2-(5-Ethyl-2-pyridyl)ethoxy]phenyl}methyl)-1,3-thiazolidine-2,4-dione, reference compound], in series [1], the “decrease of inflammatory biomarker serum amyloid A” value was “statistically significant”, the non-essential fatty acids entry is recorded as “a similar trend was observed” and the serum triglycerides result is listed as “The same was observed”.
With `[2H]C1(Cc2ccc(OCCc3ccc(CC)cn3)cc2)SC(=O)NC1=O` (racemic) [d-rac-pio], the entries for the “k RS* (enantiomerization h-R-pio to h-S-pio)” value in series [2] and in series [3] (setting [4]) were 0.743 h⁻¹ and 0.440 h⁻¹, respectively. Further, the entries for the “k SR* (enantiomerization h-S-pio to h-R-pio)” value in series [2] and in series [3] (setting [4]) were 0.924 h⁻¹ and 0.433 h⁻¹, respectively.
For `[2H][C@@]1(Cc2ccc(OCCc3ccc(CC)cn3)cc2)SC(=O)NC1=O` [d-S-pio, (S)-5-({p-[2-(5-Ethyl-2-pyridyl)ethoxy]phenyl}methyl)-(5-^2H)-1,3-thiazolidine-2,4-dione], in series [1], the non-essential fatty acids entry is given as “a similar trend was observed” and the serum triglycerides result is given as “The same was observed”. The “effect of deuterium incorporation on half-life, deuterated vs. protonated enantiomer” value in series [3] is recorded as “approximately the same as the half-life for h-S-pio”.
On to `[2H][C@]1(Cc2ccc(OCCc3ccc(CC)cn3)cc2)SC(=O)NC1=O` [d-R-pio, (R)-5-({p-[2-(5-ethyl-2-pyridyl)ethoxy]phenyl}methyl)-(5-^2H)-1,3-thiazolidine-2,4-dione], for which, in series [1], the “decrease of inflammatory biomarker serum amyloid A” value was “statistically significant”, the non-essential fatty acids entry is recorded as “a similar trend was observed” and the serum triglycerides entry was “The same was observed”. The “effect of deuterium incorporation on half-life, deuterated vs. protonated enantiomer” value in series [3] is recorded as “approximately two-fold”.
